US9278137B2, “Polymeric conjugates of active principles, their process of preparation and their polymeric intermediates” (SANOFI, priority 2010, dated 2016)

Assays:
[1] = Nanoparticle size by Malvern Nanosizer (Quasi Elastic Light Scattering)
[2] = Nanoparticle size (hydrodynamic diameter) by dynamic light scattering (DLS)
[3] = nanoparticles in deionized water, dispersion diluted ten fold
[4] = nanodispersion with Solutol HS15 and sodium deoxycholate, before evaporation

Substance	average size ([1]; after evaporation, all concentrations between 10 and 200 mg/g)	size of the nanoparticles ([1]; after evaporation, final nanodispersion concentration between 10 and 200 mg/g)	PDI [1, 4]	average size [1, 4]	size of nanoparticles [1, 4]	Mean diameter (using DLS) ([2]; nanodispersion 10 mg/mL in WFI)	PDI (DLS) ([2]; nanodispersion 10 mg/mL in WFI)	mean diameter (TEM) [3]	mean diameter (DLS) ([2]; 5 mg/ml conjugate in deionized water, sample filtered (1,2 μm))	size distribution over time (DLS) ([2]; for 3 weeks (T 0 vs T+3 weeks))
mPEG2000-PLA10000-Y-succinyl-2′-cabazitaxel [VIII′]	30 nm	≤ 100 nm	0.14	30 nm	≤ 100 nm	43 nm	0.14	–	–	–
mPEG2000-PLA14000-Y-succinyl-2′-cabazitaxel [VIII]	–	–	–	–	–	–	–	27 nm	62 nm	remained unchanged
